{"sequences": {"note": "Sequences of proteins named here, by UniProt entry; tags and fusion partners are left off.", "UniProt P10828, whole entry": "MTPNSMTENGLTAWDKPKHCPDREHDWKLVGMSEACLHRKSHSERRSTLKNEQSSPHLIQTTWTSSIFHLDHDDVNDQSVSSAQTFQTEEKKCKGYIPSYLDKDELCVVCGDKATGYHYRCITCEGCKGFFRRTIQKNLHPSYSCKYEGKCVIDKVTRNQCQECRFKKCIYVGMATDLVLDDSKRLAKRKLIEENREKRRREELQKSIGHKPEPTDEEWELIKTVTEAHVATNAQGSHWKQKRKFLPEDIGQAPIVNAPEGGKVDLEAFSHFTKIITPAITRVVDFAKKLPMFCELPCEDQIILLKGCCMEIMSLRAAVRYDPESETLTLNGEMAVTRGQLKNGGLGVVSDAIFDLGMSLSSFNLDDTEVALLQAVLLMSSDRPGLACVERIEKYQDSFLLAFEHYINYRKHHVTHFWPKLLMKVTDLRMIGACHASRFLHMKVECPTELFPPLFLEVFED"}, "source": "PubChem BioAssay AID1469", "about": "(National Center for Advancing Translational Sciences (NCATS), 2008)", "note": "The list shows a part of the results, in another mix than the full data. Some of these compounds have results that are not shown, active ones among them. Activity calls are given as the source filed them. Calls follow the shape of the dose curve; as a rule, active = well fitted inhibition curve with a large enough effect; inconclusive = small, poorly fitted or top-dose-only effect, or effect the other way; inactive = flat fitted curve, though single readings scatter.", "data": [{"biological_target": "Thyroid hormone receptor beta (Homo sapiens) (UniProt P10828)", "test": "qHTS for Inhibitors of the Interaction of Thyroid Hormone Receptor and Steroid Receptor Coregulator 2;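 also: plate controls were bound peptide for no effect and peptide without receptor for full effect; nearly all actives have a fitted effect of over 50% in size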", "details": "TRbeta-SRC2 peptide binding, fluorescence polarization, receptor liganded with 1 µM T3; at 106 µM (top of the series)", "text": "NIH Molecular Libraries Probe Production Network [MLPCN]\nNIH Chemical Genomics Center [NCGC]\nAssay Provider: R. Kip Guy, St. Jude Children's Research Hospital\nThyroid receptor (TR) regulates many homeostatic processes including basal metabolism, cardiovascular function, body weight, and lipid trafficking. TR modulators are potential therapeutics for obesity and hyperlipidemias but current thyroid analogs have undesirable side effects, particularly cardiac stimulation. To identify inhibitors that specifically prevent the interaction of TR with the steroid receptor coregulator 2 (SRC2), a fluorescence polarization assay was screened. This assay detects interaction of the ligand-binding domain of human TRb with a Texas Red labeled SRC2 peptide, corresponding to a 20 amino acid region of the nuclear receptor interaction domain (Arnold et al., 2006). Small molecule inhibitors that block the interaction of TR and SRC2 are detected by a decrease in fluorescence polarization.\nArnold, L. A.; Estebanez-Perpina, E.; Togashi, M.; Shelat, A.; Ocasio, C. A.; McReynolds, A. C.; Nguyen, P.; Baxter, J. D.; Fletterick, R. J.; Webb, P.; Guy, R. K. A high-throughput screening method to identify small molecule inhibitors of thyroid hormone receptor coactivator binding. Sci STKE 2006, p 13.\nNCGC Assay Protocol Summary:\nFor screening, 5 uL/well 0.6 uM TRb and 20 nM SRC2 Texas Red in protein buffer (20mM Tris hydrochloride, 100mM NaCl, 10% glycerol, 1mM EDTA, 0.01% NP-40, 1mM DTT, 1uM T3 and 5% DMSO) was dispensed into black solid 1536-well plates (Grenier) using a solenoid-based dispenser. Following transfer of 23 nL compound or DMSO vehicle by a pin tool, the plates were centrifuged 15 s at 1000 RPM and incubated 5 hr at ambient temperature. […] Data were normalized to unbound (all components except TRb) and bound SRC2 Texas Red controls. In this assay, we provide % activity data for each concentration as well as potencies for the active compounds.\nKeywords: NIH Roadmap, MLPCN, MLI, MLSMR, qHTS, NCGC, qHTS, thyroid hormone receptor, steroid receptor coactivator, fluorescence polarization", "values": [{"smiles": "CCCCOc1ccccc1C(=O)NCC1(N(C)C)CCCCC1", "activity change, negative = inhibition": "inactive: 2.21%"}, {"smiles": "CN(C)C1CCCC1OC(=O)C(O)(c1ccccc1)c1ccccc1", "note": "(stereo not given)", "activity change, negative = inhibition": "inactive: 10.3%"}, {"smiles": "Cc1ccccc1C(=O)NCC1(N2CCCCC2)CCCCC1", "activity change, negative = inhibition": "inactive: 1.37%"}, {"smiles": "CN(C)C1(CNC(=O)c2ccccc2[N+](=O)[O-])CCCCC1", "activity change, negative = inhibition": "inactive: 1.09%"}, {"smiles": "CCN1CCCC(OC(=O)C2(O)c3ccccc3C=Cc3ccccc32)C1", "note": "(stereo not given)", "activity change, negative = inhibition": "inactive: -1.88%"}, {"smiles": "CCOc1cccc(C(=O)NCC2(N(C)C)CCCCC2)c1", "activity change, negative = inhibition": "inactive: -5.99%"}, {"smiles": "O=C(NCC1(N2CCCCC2)CCCCC1)c1cc([N+](=O)[O-])ccc1Cl", "activity change, negative = inhibition": "inactive: -1.12%"}, {"smiles": "CN(C)C1(CNC(=O)c2ccccc2F)CCCCC1", "activity change, negative = inhibition": "inactive: -7.23%"}, {"smiles": "CCN(CC)CC(C)C(C)OC(=O)C(O)(c1ccccc1)c1ccccc1", "note": "(stereo not given)", "activity change, negative = inhibition": "inactive: 3.16%"}, {"smiles": "CN(C)C1(CNC(=O)c2cccc(Cl)c2)CCCCC1", "activity change, negative = inhibition": "inactive: -7.65%"}, {"smiles": "CC(C)COc1ccc(C(=O)NCC2(N(C)C)CCCCC2)cc1", "activity change, negative = inhibition": "inactive: -5.58%"}, {"smiles": "O=C(OC1CN2CCC1CC2)C(CO)(c1ccccc1)c1ccccc1", "note": "(stereo not given)", "activity change, negative = inhibition": "inactive: -10.5%"}, {"smiles": "COc1cccc(C(=O)NCC2(N3CCOCC3)CCCCC2)c1", "activity change, negative = inhibition": "inactive: -7.04%"}, {"smiles": "CN(C)c1cccc(C(=O)NCC2(N(C)C)CCCCC2)c1", "activity change, negative = inhibition": "inactive: -9.51%"}, {"smiles": "CC(C)Oc1ccc(C(=O)NCC2(N(C)C)CCCCC2)cc1", "activity change, negative = inhibition": "inactive: 2.07%"}, {"smiles": "COc1ccc(Br)c(C(=O)NCC2(N3CCCCC3)CCCCC2)c1", "activity change, negative = inhibition": "inactive: -1.65%"}, {"smiles": "Cc1cccc(C(=O)NCC2(N(C)C)CCCCC2)c1", "activity change, negative = inhibition": "inactive: 3.3%"}, {"smiles": "COc1cc(C(=O)NCC2(N(C)C)CCCCC2)cc(OC)c1OC", "activity change, negative = inhibition": "inactive: -0.297%"}, {"smiles": "COc1ccc(C(=O)NCC2(N(C)C)CCCCC2)cc1Cl", "activity change, negative = inhibition": "inactive: -3.15%"}, {"smiles": "COc1cccc(C(=O)NCC2(N3CCCCC3)CCCCC2)c1", "activity change, negative = inhibition": "inactive: 1.63%"}]}]}
